In patent US11897876B2, “Isoxazolidines as RIPK1 inhibitors and use thereof” (GENZYME CORPORATION, priority 2022, dated 2024):

How the values were obtained:
RIPK1 = RIPK1 (Homo sapiens, UniProt Q13546); settings: WO2018092089; cited from earlier work
[1] = molecular target: T1, hRIPK1 (aa 1-375) fusion protein (Homo sapiens, UniProt Q13546); experiment: ADP-Glo kinase assay of RIPK1 catalytic activity (autophosphorylation)
T1 sequence (Q13546 1-375): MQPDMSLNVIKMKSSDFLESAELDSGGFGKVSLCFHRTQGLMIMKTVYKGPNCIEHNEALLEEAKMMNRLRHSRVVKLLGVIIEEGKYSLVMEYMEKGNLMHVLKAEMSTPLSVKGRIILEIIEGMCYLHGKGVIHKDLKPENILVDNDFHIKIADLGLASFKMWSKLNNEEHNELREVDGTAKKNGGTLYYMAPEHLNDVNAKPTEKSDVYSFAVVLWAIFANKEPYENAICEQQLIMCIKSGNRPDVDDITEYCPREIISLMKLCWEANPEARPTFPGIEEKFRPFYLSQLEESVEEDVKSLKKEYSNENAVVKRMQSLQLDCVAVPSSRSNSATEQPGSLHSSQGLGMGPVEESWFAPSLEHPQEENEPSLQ

Row | IC50 [1] [nM] | Structure (SMILES) | pIC50 (GSK data) (RIPK1)
1 | – | O=C(C1CCN(c2nccc(-c3ccccc3)n2)CC1)N1N=CCC1c1ccccc1 (centres unmarked) [Comparator Example A, (3-Phenyl-3,4-dihydropyrazol-2-yl)-[1-(4-phenylpyrimidin-2-yl)-4-piperidyl]methanone, reference compound] | 8-9
2 | – | Cc1nnc(-c2cc(N3CCC(C(=O)N4N=CC[C@H]4c4ccccc4)CC3)ncn2)o1 [Comparator Example C, [1-[6-(5-Methyl-1,3,4-oxadiazol-2-yl)pyrimidin-4-yl]-4-piperidyl]-[(3S)-3-phenyl-3,4-dihydropyrazol-2-yl]methanone, reference compound] | 7-9
3 | 7 | Cc1cc(-c2cc(N3CCC(C(=O)N4OCC[C@H]4c4cc(F)cc(C#N)c4)CC3)ncn2)n(C)n1 [Example 9, 3-[(3S)-2-[1-[6-(2,5-Dimethylpyrazol-3-yl)pyrimidin-4-yl]piperidine-4-carbonyl]isoxazolidin-3-yl]-5-fluoro-benzonitrile] | –
4 | 9 | Cn1nccc1-c1ncnc(N2CCC(C(=O)N3OCC[C@H]3c3cc(F)cc(F)c3)CC2)c1F [Example 15, [(3S)-3-(3,5-Difluorophenyl)isoxazolidin-2-yl]-[1-[5-fluoro-6-(2-methylpyrazol-3-yl)pyrimidin-4-yl]-4-piperidyl]methanone] | –

Row | Structure (SMILES) | IC50 [1] [nM] | pIC50 (GSK data) (RIPK1)
5 | O=C(C1CCN(c2nccc(-c3ccccc3)n2)CC1)N1OCC[C@H]1c1ccccc1 [Comparator Example B, [(3S)-3-Phenylisoxazolidin-2-yl]-[1-(4-phenylpyrimidin-2-yl)-4-piperidyl]methanone, reference compound] | 16.4 | –
